Assay [1] can be described thus: Tanguay_ZF_120hpf_CFIN_legacy: (Legacy) Oregon State University Tanguay Lab 120 Hour Post-fertilization zebrafish Assay for Caudal Fin Malformation (AID 2283649). The method, boiled down:
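Dechorionated Tropical 5D wild-type embryos, one per well from 6 hpf, static exposure to 120 hpf at 28C in 0.64% DMSO. Caudal fin malformation scored by brightfield as present/absent; not scored in dead embryos.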

Amino acid sequences for entries named in this document (tags omitted). A change or cut given only in a name is not applied to a line headed by its entry.
UniProt Q9UNQ0: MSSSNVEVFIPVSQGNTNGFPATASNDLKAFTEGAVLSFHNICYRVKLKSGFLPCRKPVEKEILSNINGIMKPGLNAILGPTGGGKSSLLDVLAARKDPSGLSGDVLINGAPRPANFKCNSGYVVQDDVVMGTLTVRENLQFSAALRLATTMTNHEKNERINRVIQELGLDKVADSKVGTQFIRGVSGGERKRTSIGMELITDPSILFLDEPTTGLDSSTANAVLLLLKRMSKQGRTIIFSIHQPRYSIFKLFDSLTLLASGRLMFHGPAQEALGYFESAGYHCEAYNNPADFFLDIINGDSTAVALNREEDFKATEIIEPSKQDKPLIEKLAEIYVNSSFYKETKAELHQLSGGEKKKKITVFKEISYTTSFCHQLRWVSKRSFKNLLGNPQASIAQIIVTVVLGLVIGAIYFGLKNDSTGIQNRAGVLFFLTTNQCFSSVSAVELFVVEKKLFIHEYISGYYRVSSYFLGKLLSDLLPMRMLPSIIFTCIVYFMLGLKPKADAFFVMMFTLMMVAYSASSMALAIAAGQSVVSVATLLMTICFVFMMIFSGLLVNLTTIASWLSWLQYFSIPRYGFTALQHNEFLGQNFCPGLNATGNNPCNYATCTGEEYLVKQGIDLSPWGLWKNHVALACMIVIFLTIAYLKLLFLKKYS

Assay [2] in a line: Tanguay_ZF_120hpf_PIG_legacy: (Legacy) Oregon State University Tanguay Lab 120 Hour Post-fertilization zebrafish Assay for Pigmentation Malformation (AID 2283650). The method, boiled down:
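Tropical 5D wild-type zebrafish embryos, dechorionated with pronase at 4 hpf, were exposed singly from 6 hpf to 120 hpf statically at 28C in sealed, dark plates with 0.64% DMSO; pigmentation scored present/absent by brightfield microscopy, fitted against DMSO.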

The nature of assay [3]: Tanguay_ZF_120hpf_CIRC_legacy: (Legacy) Oregon State University Tanguay Lab 120 Hour Post-fertilization zebrafish Assay for Circulatory Malformation (AID 2283651). The procedure, abridged:
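Read-out: presence or absence of circulatory malformation at 120 hpf, scored by brightfield microscopy, fitted in the gain-of-signal direction against DMSO baseline. Wild-type 5D larvae were exposed from 6 hpf after enzymatic chorion removal.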

The nature of assay [4]: Tanguay_ZF_120hpf_SWIM_legacy: (Legacy) Oregon State University Tanguay Lab 120 Hour Post-fertilization zebrafish Assay for Swim Bladder Malformation (AID 2283654).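 Also: swim bladder malformation in each larva scored yes or no under brightfield.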 The method, boiled down:
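Dechorionated Tropical 5D wild-type embryos, placed singly from 6 hpf, were statically exposed at 28C to 120 hpf with 0.64% DMSO final; swim bladder malformation was scored present/absent by brightfield microscopy, gain of signal relative to DMSO controls.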

A short description of assay [5]: Tanguay_ZF_120hpf_TR_legacy: (Legacy) Oregon State University Tanguay Lab 120 Hour Post-fertilization zebrafish Assay for Touch Response (AID 2283667). The method, boiled down:
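Tropical 5D wild-type zebrafish embryos were exposed statically in sealed, foil-covered plates at 28C until 120 hpf, with 0.64% (vol/vol) final DMSO. Touch response was scored as present or absent; embryos that died were not scored.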

Assay [6] can be described thus: Tanguay_ZF_120hpf_SOMI_legacy: (Legacy) Oregon State University Tanguay Lab 120 Hour Post-fertilization zebrafish Assay for Somite Malformation (AID 2283647). The procedure, abridged: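 Dechorionated Tropical 5D wild-type zebrafish embryos, one per well from 6 hpf, statically exposed at 28C to 120 hpf in 0.64% DMSO; somite malformation scored present/absent by brightfield; trimethyltin 5 uM positive control; dead embryos not scored.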

The nature of assay [7]: Tanguay_ZF_120hpf_PFIN_legacy: (Legacy) Oregon State University Tanguay Lab 120 Hour Post-fertilization zebrafish Assay for Pectoral Fin Malformation (AID 2283648).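 Also: each larva judged yes or no for fin defect by brightfield with dead larvae skipped.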 The method, boiled down: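 Tropical 5D wild-type embryos, dechorionated with pronase at 4 hpf, were placed singly in wells at 6 hpf and statically exposed until 120 hpf at 28C, sealed and dark, with 0.64% (vol/vol) final DMSO; pectoral fin malformation scored present/absent.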

Assay [8] can be described thus: Tanguay_ZF_120hpf_TRUN_legacy: (Legacy) Oregon State University Tanguay Lab 120 Hour Post-fertilization zebrafish Assay for Truncated Body (AID 2283655). The procedure, abridged: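 Dechorionated Tropical 5D wild-type embryos placed singly from 6 hpf and statically exposed to 120 hpf at 28C, final DMSO 0.64%. Truncated body scored as present/absent by brightfield; not scored in dead embryos.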

Assay [9] can be described thus: Tanguay_ZF_120hpf_NC_legacy: (Legacy) Oregon State University Tanguay Lab 120 Hour Post-fertilization zebrafish Assay for Notochord and Tail Malformation (AID 2283656). The method, boiled down:
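Dechorionated Tropical 5D wild-type zebrafish embryos, one per well from 6 hpf, statically exposed to 120 hpf at 28C in 0.64% DMSO final. Notochord distortion scored present/absent by brightfield; dead embryos excluded.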

Read-out in assay [10]: ABC Transporter (ABCB1), ABCB1 (gene 5243)
Description: CLD_ABCB1_6hr: CellzDirect (CLD) Gene Expression Assay for ABC Transporter (ABCB1) at 6 hours (AID 2283659).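 Also: hits raise ABCB1 transcript above the DMSO vehicle baseline.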 The procedure, abridged: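 Primary human hepatocytes (two donor preparations) dosed daily for two days with chemicals at multiple concentrations, 0.2% DMSO vehicle; harvested 6 h post-dose. ABCB1 mRNA induction quantified by qNPA chemiluminescence; gain-of-signal fitted versus DMSO.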

Read-out in assay [11]: Broad substrate specificity ATP-binding cassette transporter ABCG2 (Homo sapiens) (UniProt Q9UNQ0)
The experiment in a line: CLD_ABCG2_6hr: CellzDirect (CLD) Gene Expression Assay for ABC Transporter (ABCG2) at 6 hours (AID 2283660). The procedure, abridged: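 Primary human hepatocytes dosed daily with chemicals at multiple concentrations (0.2% DMSO vehicle), harvested 6 h after dosing. ABCG2 mRNA induction read by quantitative nuclease protection assay (qNPA) chemiluminescence; gain of signal fitted against DMSO baseline.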

Read-out in assay [12]: xenobiotic metabolism (CYP2C9), CYP2C9 (gene 1559)
The experiment in a line: CLD_CYP2C9_6hr: CellzDirect (CLD) Gene Expression Assay for xenobiotic metabolism (CYP2C9) at 6 hours (AID 2283664). The method, boiled down:
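Primary human hepatocytes dosed daily with test chemicals at multiple concentrations; harvested at 6 h. CYP2C9 mRNA induction measured by qNPA chemiluminescence. Gain of signal fitted against 0.2% DMSO vehicle; cytotoxicity annotated from phase-contrast morphology.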

Read-out in assay [13]: organic anion transporter (SLCO1B1), SLCO1B1 (gene 10599)
Description: CLD_SLCO1B1_6hr: CellzDirect (CLD) Gene Expression Assay for organic anion transporter (SLCO1B1) at 6 hours (AID 2283668).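 Also: active means mRNA induction above DMSO baseline.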 The procedure, abridged: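 Primary human hepatocytes dosed daily with test chemicals (multiple concentrations) in 0.2% DMSO vehicle; harvested at 6 h. SLCO1B1 mRNA quantified by qNPA chemiluminescence, fitted as gain-of-signal versus DMSO; cytotoxicity from phase-contrast morphology flagged alongside.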

Read-out in assay [14]: sulfotransferase (SULT2A), SULT2A1 (gene 6822)
The experiment in a line: CLD_SULT2A_6hr: CellzDirect (CLD) Gene Expression Assay for sulfotransferase (SULT2A) at 6 hours (AID 2283669).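 Also: hits raise transcript level above the DMSO vehicle baseline.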 The procedure, abridged: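 Primary human hepatocytes from two donor preparations were dosed daily with chemicals or 0.2% DMSO and harvested at 6 h. Transcript induction read by qNPA chemiluminescence, fitted for gain of signal relative to DMSO; morphology-based cytotoxicity annotated.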

In assay [15] the test system is Thyroperoxidase (TPO), gene 54314. Description: CCTE_Simmons_AUR_rTPO: CCTE's Amplex UltraRed Assay for Thyroperoxidase (TPO) Inhibition, Simmons Lab (AID 2283662).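 As to AC50: potency for loss of signal meaning inhibition of peroxidase activity.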 The method, boiled down: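 Endpoint is decreased Amplex UltraRed fluorescence after a 30-min, 37C reaction of rat thyroid microsomes with 300 uM H2O2. Eight test concentrations (5 nM–87.5 uM final) in 0.5% DMSO, three biological replicates each.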

Assay [16] can be described thus: CCTE_Simmons_CellTiterGLO_HEK293T: Viability Assessment in CCTE's Assays for Thyroperoxidase (TPO) Inhibition, Simmons Lab (AID 2283665).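 As to AC50: cells exposed to compound for 24 h before readout; actives reduce ATP signal below DMSO vehicle meaning cytotoxicity.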 The procedure, abridged:
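HEK293T, 10 000 cells/well, DMEM + 1% FBS; 8-pt titration 5 nM–87.5 uM [final], 0.5% DMSO; 24 hr, 37C, 5% CO2; CellTiter-Glo luminescence; n=3 biological replicates.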
Background: ATP-based viability assays read luminescence as a measure of living cells.

Read-out in assay [17]: xenobiotic metabolism (CYP1A1), CYP1A1 (gene 1543)
The experiment in a line: CLD_CYP1A1_6hr: CellzDirect (CLD) Gene Expression Assay for xenobiotic metabolism (CYP1A1) at 6 hours (AID 2283661).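 As to AC50: potency for transcript induction above DMSO vehicle baseline.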 The procedure, abridged:
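Primary human hepatocytes from two donors, compound versus 0.2% DMSO vehicle. CYP1A1 mRNA measured 6 h after dosing by quantitative nuclease protection assay with chemiluminescent read-out; induction fitted relative to DMSO, cytotoxicity flagged by microscopy.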

Read-out in assay [18]: xenobiotic metabolism (CYP1A2), CYP1A2 (gene 1544)
Description: CLD_CYP1A2_6hr: CellzDirect (CLD) Gene Expression Assay for xenobiotic metabolism (CYP1A2) at 6 hours (AID 2283663).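 As to AC50: potency is for induction meaning a rise in mRNA above DMSO.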 The procedure, abridged:
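Primary human hepatocytes from two donor preparations, dosed daily with multiple concentrations in 0.2% DMSO and harvested at 6 h. CYP1A2 mRNA induction measured by chemiluminescent qNPA, gain of signal fitted against DMSO; cytotoxicity flagged morphologically.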

Read-out in assay [19]: alkyl and aryl transferase (GSTA2), GSTA2 (gene 2939)
Description: CLD_GSTA2_6hr: CellzDirect (CLD) Gene Expression Assay for alkyl and aryl transferase (GSTA2) at 6 hours (AID 2283666). The method, boiled down:
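Primary human hepatocytes from two donor preparations were dosed daily with fresh compound at multiple concentrations, 0.2% DMSO vehicle. GSTA2 mRNA was measured at 6 hours by qNPA chemiluminescence; induction fitted relative to DMSO, with cytotoxicity flagged morphologically.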

Assay [20] in a line: CLD_ACTIN_24hr: CellzDirect (CLD) Gene Expression Assay for Baseline Control (Actin) at 24 hours (AID 2283670). The procedure, abridged:
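Primary human hepatocytes dosed over multiple concentrations with 0.2% DMSO vehicle; actin mRNA measured at 24 h by qNPA chemiluminescence. Background control endpoint, fitted as gain of signal versus DMSO.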

Where “and” joins values, the source holds several entries; their conditions need not be identical. Equal entries are not always repeated. The entries are a selection whose mix differs from that of the whole data set. Results filed as inconclusive are left out. The source holds several records for some structures; these can differ, active in one and inactive in another. Calls of active or inactive are those of the source. The calls were made as follows: active = hit-call score of the fitted dose curve at least 0.9, where 1 is the maximum; inconclusive = response in the unintended direction; inactive = score below 0.9.

As usually defined, the AC50 is the concentration giving half of the maximal activity seen. Regarding `Cc1cc([N+](=O)[O-])cc([N+](=O)[O-])c1O`, the AC50 in assay [1] was active: 4.94 µM. Further, the result in [2], in [3], in assay [4] and in [5] was inactive.
In the case of `O=C1C2CC=CCC2C(=O)N1SC(Cl)(Cl)C(Cl)Cl` (centres undefined), the compound was called inactive in assay [6], in assay [7], in [1], in [8], in assay [9] and in [10]. In addition, the compound was called inactive in assay [11], in assay [12], in [5], in assay [13] and in assay [14].
With `CN(C(=O)Cc1cccc2occc12)[C@H]1CC[C@@]2(CCCO2)C[C@@H]1N1CCCC1`, the compound was classed as inactive in assay [6], in assay [7], in assay [1], in [2], in [4] and in [8]. The call in assay [9] and in assay [5] was inactive.
With `O=[P+](Oc1ccccc1)Oc1ccccc1`, the AC50 in [15] was active: 16.2 µM.
For the compound `CC(C)CCCCCCCOP(OCCCCCCCC(C)C)Oc1ccccc1`, the figures for the AC50 in [15] and in assay [16] were active: 18.8 µM and active: 89.3 µM, respectively.
In the case of `CC(C)OP(=S)(OC(C)C)SCCNS(=O)(=O)c1ccccc1`, the result in assay [6], in assay [1], in assay [3], in [4], in assay [8] and in [9] was inactive. Moreover, the compound was classed as inactive in assay [10], in assay [11], in [17], in [15], in [18] and in assay [12]. Moreover, the result in assay [19], in assay [5], in assay [13], in [14] and in assay [20] was inactive. For the same compound, the AC50 in assay [17] was active: 5.8 µM and active: 273 nM; in assay [15], active: 26.7 µM and active: 7.67 µM; in assay [18], active: 8.44 µM and active: 21.9 nM.
Regarding `ClP(Cl)c1ccccc1`, the AC50 in assay [15] was active: 26.2 µM. In addition, the compound was called inactive in assay [16].

Source of the values: PubChem BioAssay (EPA / NIEHS).
